For the assay, the target named is T1, Thromboxane synthase (Homo sapiens, UniProt P24557).
T1 sequence (P24557 1-533): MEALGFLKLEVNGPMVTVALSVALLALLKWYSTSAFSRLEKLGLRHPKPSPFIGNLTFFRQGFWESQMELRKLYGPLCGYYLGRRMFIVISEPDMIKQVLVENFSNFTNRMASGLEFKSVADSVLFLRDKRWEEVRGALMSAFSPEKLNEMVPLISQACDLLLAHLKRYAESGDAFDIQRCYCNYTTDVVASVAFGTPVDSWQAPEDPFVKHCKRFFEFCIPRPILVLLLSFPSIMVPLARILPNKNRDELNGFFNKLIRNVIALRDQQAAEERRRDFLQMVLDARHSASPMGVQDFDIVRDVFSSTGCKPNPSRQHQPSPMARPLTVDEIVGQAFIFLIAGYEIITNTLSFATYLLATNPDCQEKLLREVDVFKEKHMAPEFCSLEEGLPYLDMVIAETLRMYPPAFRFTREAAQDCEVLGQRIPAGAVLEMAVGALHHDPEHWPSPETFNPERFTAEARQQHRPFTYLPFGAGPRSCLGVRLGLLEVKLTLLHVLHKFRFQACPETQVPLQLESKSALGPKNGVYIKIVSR
The assay is described as follows: Human platelet thromboxane synthase assay. The format is biochemical.

Our source for the IC50 values is patent publication US8536196B2, “Substituted 1,3-dioxanes useful as PPAR modulators” (Evolva SA, priority 2007, dated 2013).

A word on the IC50: it is the concentration that inhibits the measured activity by half. A low value points to higher potency. Consider `O=C(O)CC/C=C\C[C@H]1COC(c2ccccc2Cl)O[C@H]1c1ccccc1O` (single isomer, unassigned) [Compound A], for which the midpoint of inhibition, the IC50, lay at 12.1 µM.
